scFv variants of Ab-95 (light chain) against a SARS-CoV-2 spike peptide

The target is the same throughout: PDVDLGDISGINAS, from the HR2 region of SARS-CoV-2 spike.

Ab-95 is the parent antibody, in scFv form: VH, then the linker GGGGSGGGGSGGGGS, then VL. The heavy chain is unchanged in all variants.
VH: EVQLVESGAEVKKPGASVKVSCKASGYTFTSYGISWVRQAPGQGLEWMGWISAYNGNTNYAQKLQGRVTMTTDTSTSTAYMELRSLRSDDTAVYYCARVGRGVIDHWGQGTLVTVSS
VL: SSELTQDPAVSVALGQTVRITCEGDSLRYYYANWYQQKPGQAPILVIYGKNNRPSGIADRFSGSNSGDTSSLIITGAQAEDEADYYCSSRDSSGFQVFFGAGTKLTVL

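The starting antibody came from a phage panning campaign against this peptide. The library (AAYL52) carries one to three amino acid substitutions per variant, with no insertions or deletions. Affinity was read by AlphaSeq, a pooled yeast mating assay with surface-displayed partners. After mating in shaken culture at 30 °C for 16 h, diploids were selected and their barcode pairs sequenced. Scores were corrected for input abundance and mapped to Kd with protein pairs of known affinity run in the same pool. There are three technical replicates.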

Positions count from residue 1 of the parent VL; Y29E puts E in place of Y.
This list gathers variants with a substitution at Y29 (VL, numbered from residue 1).
Values are apparent Kd, the geometric mean of the replicates that gave a signal; lower means stronger binding.
"no signal" marks a missing value. The strain was present, yet no cells mated with the target were sequenced in any replicate, which points to weak or no binding.
In this assay the parent's reference entry averaged 200 nM; its copy inside this library read 180 nM.
As a blank, each scFv also met three strains without target: over library AAYL52, 28% of these pairings were detected, typically at 8.2 µM and seldom below 800 nM. The control count says in how many pairings with the empty strains this scFv gave a signal.

With Y29E+A32D+N52G the result was 44 µM (3 of 3 replicates; controls 3 of 9).
With Y29F+N51D+G94Y the result was 1.4 µM (2 of 3 replicates; controls 4 of 9).
With S26I+Y29D+V97L the result was 3.5 µM (2 of 3 replicates; controls 5 of 9).
With Y29C the result was 130 nM (3 of 3 replicates; controls 2 of 9).
With Y29I+A32R+K50I the result was 90 µM (3 of 3 replicates; controls 3 of 9).
With E23D+Y29A the result was 270 nM (3 of 3 replicates; controls 1 of 9).
With Y29E+R90L+S93M the result was 56 µM (1 of 3 replicates; controls 2 of 9).
With Y29D+Y31F+Q96F the result was 680 nM (3 of 3 replicates; controls 7 of 9).
With Y29P+S89Q the result was 230 nM (3 of 3 replicates; controls 2 of 9).
With R28G+Y29T+Q96M the result was 460 nM (3 of 3 replicates; controls 5 of 9).
With D25I+Y29A+S93I the result was 13 µM (1 of 3 replicates; controls 5 of 9).
With R28A+Y29N+S88Q the result was 160 nM (3 of 3 replicates; controls 2 of 9).
With R28E+Y29L+S89F the result was 260 µM (1 of 3 replicates; controls 2 of 9).
With Y29C+G49E+N51G the result was 6.8 µM (1 of 3 replicates; controls 5 of 9).
With S26W+R28P+Y29L the result was no signal (0 of 3 replicates; controls 5 of 9).
With E23W+Y29P+R53E the result was 3.2 µM (1 of 3 replicates; controls 0 of 9).
With Y29N+D91E+G94K the result was 160 nM (3 of 3 replicates; controls 3 of 9).
With Y29W+Y31F+K50Y the result was 3.4 µM (2 of 3 replicates; controls 6 of 9).
With G24C+Y29Q+K50S the result was 5.1 µM (3 of 3 replicates; controls 6 of 9).
With Y29H+Y30C+Y31P the result was 92 nM (3 of 3 replicates; controls 4 of 9).
With Y29H+R53V the result was 180 nM (3 of 3 replicates; controls 5 of 9).
With E23V+Y29P+S92I the result was 85 nM (3 of 3 replicates; controls 4 of 9).
With Y29W+A32R+G49V the result was 7.3 µM (3 of 3 replicates; controls 8 of 9).
With R28M+Y29R+S89G the result was 610 nM (2 of 3 replicates; controls 2 of 9).
With Y29E+P54A+Q96L the result was 990 nM (3 of 3 replicates; controls 8 of 9).
With Y29W+G94V+Q96P the result was 1.3 µM (3 of 3 replicates; controls 0 of 9).
With Y29F+N51L+S55H the result was 1.8 µM (1 of 3 replicates; controls 4 of 9).
With E23K+Y29S+S55F the result was 14 nM (3 of 3 replicates; controls 3 of 9).
With R28W+Y29I+D91A the result was 2.5 µM (2 of 3 replicates; controls 3 of 9).
With Y29K+S55T+F98G the result was 1.7 µM (3 of 3 replicates; controls 3 of 9).
With D25V+Y29Q the result was 120 nM (3 of 3 replicates; controls 6 of 9).

The measurements come from Engelhart et al. 2022 (doi:10.1038/s41597-022-01779-4) through the FLAb antibody collection.